The source of these data is patent US20210009542A1 (Calico Life Sciences LLC, priority 2018, published 2021).

Protein sequences, listed by entry. Tags and fused reporters are not part of them. Chains listed by the source or under a name are the forms on record and can include a tag or linker. Residues count along the entry.
UniProt P17706, 1-387 with tags or gaps isoform 2: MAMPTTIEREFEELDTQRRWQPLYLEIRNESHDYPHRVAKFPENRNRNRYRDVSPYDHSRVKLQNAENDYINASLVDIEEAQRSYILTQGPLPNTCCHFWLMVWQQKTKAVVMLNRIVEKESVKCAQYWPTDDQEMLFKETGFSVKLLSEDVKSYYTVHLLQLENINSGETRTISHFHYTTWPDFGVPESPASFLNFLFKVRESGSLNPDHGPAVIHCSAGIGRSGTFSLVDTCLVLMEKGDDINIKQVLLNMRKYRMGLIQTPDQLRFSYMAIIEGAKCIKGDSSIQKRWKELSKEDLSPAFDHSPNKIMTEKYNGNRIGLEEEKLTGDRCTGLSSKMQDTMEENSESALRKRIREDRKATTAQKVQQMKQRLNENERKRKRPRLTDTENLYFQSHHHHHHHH
UniProt P18031, 1-321 with tags or gaps: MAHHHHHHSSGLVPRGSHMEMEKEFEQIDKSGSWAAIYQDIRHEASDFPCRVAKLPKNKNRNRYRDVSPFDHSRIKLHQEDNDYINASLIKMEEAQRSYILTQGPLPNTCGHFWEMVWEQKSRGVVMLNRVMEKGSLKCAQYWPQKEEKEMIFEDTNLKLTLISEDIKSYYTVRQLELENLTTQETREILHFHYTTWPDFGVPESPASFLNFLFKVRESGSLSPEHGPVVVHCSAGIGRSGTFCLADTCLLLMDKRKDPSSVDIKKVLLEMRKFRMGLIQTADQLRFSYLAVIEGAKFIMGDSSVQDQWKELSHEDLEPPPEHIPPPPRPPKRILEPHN

One may read the IC50 as the concentration needed to halve the response being measured.

Assay [1] concerns B16F10 mouse melanoma cells. Kind of assay: B16F10 IFNγ-induced cellular growth inhibition assay. The settings on record: 33 μM compound; for % B16F10 growth inhibition (+0.5 ng/mL IFNγ) @ 33 μM: relative to DMSO control.
Assay [2] has as its target His tagged PTPN2 (TC45) protein (Homo sapiens, UniProt P17706). The assay can be described thus: Mobility shift assay (MSA) for potency of PTPN2 inhibitors. The settings on record: read-out: PTPN2 MSA IC50.
Assay [3] concerns the target His tagged full-length PTP1B protein (Homo sapiens, UniProt P18031). Kind of assay: Mobility shift assay (MSA) for potency of PTP1B inhibitors. As to conditions: read-out: PTP1B MSA IC50. Format: biochemical.

Where only a bound is given, the exact number is not on record here.

In the case of `O=C1CN(c2c(O)cc3ccc(CC4CCN(S(=O)(=O)C5CC5)CC4)cc3c2F)S(=O)(=O)N1`, the “% B16F10 growth inhibition (+0.5 ng/mL IFNγ) @ 33 μM” value in assay [1] is “C (a percent growth inhibition of 25-59%)”. For the same compound, in assay [1], the “% B16F10 growth inhibition (no IFNγ) @ 33 μM” value is “D (a percent growth inhibition of <25%)”. Moreover, the IC50 lay within 1 to 10 nM in assay [2] and 10 to 100 nM in assay [3].

For `CC(C)(O)CCCc1ccc2cc(O)c(N3CC(=O)NS3(=O)=O)c(F)c2c1`, in assay [1], the “% B16F10 growth inhibition (+0.5 ng/mL IFNγ) @ 33 μM” value is given as “B (a percent growth inhibition of 60-90%)” and the “% B16F10 growth inhibition (no IFNγ) @ 33 μM” value is reported as “D (a percent growth inhibition of <25%)”. Besides, in assay [2], the IC50 is less than 1 nM. For the same compound, in assay [3], the IC50 was 1 to 10 nM.

As to `N#CC1(COc2ccc3cc(O)c(N4CC(=O)NS4(=O)=O)c(F)c3c2)CC1`, the concentration for half-maximal inhibition (IC50) in assay [2] was 1 to 10 nM; in assay [3], more than 100 nM.
